According to patent US9205073B2, “Method for treating virus infection using derivative of aniline” (CHINA MEDICAL UNIVERSITY, priority 2014, dated 2015):

Tested on: EV71
Assay: Enterovirus infection-induced cytopathic effect / cell survival in RD cells with interferon
Type: cell-based, enterovirus type 71
Protocol: The RD cells were cultured in a 24-well culture plate at an initial density of 3×10^4 per well with 1 ml of 2% FBS-containing MEM medium per well. The cells were incubated in an incubator (37° C., 5% CO2) overnight. The medium was removed until the cells adhered to the plate. 1 ml of fresh 2% FBS-containing MEM medium was simultaneously added into each well. The RD cells were infected with an EV71 virus strain (M.O.I.=0.1). Different concentrations of compound 1 (final concentrations were 0, 2.5, 25 and 125 μM) and/or IFN-β (final concentrations were 0 and 100 unit/ml) were separately added into different wells. The RD cells were incubated in an incubator (37° C., 5% CO2) for 36 hours, and then their morphology was observed by photography. In addition, 200 μl of culture medium supernatant was collected from each well and stored at −80° C. for conducting the viral plaque test of Example 12.

For “IFN-β: interferon-β, a type I interferon used in combination with compound 1”, the Cell survival rate (EV71 M.O.I.=0.1, IFN-β 100 unit/ml alone, 36 hours) was 33.1% and the Cell survival rate (no EV71, IFN-β 100 unit/ml, no Compound 1, 36 hours) was 87.35%.
